Two substances from ChEMBL document CHEMBL1255351, “Biochemical characterization of metallo-beta-lactamase VIM-11 from a Pseudomonas aeruginosa clinical strain” (2008) can be followed below.

The test system of data set [1] is CO/N=C(\C(=O)N[C@@H]1C(=O)N2C(C(=O)[O-])=C(C[n+]3cccc4c3CCC4)CS[C@H]12)c1csc(N)n1. The data set is described as follows: (§1) Ratio of Kcat to Km for Pseudomonas aeruginosa COL-1 metallo-beta lactamase VIM-2.
Data set [2] relates to CO/N=C(\C(=O)N[C@@H]1C(=O)N2C(C(=O)[O-])=C(C[N+]3(C)CCCC3)CS[C@H]12)c1csc(N)n1. Described as §1.
Data set [3] relates to C[C@H]1[C@H](NC(=O)/C(=N\OC(C)(C)C(=O)O)c2csc(N)n2)C(=O)N1S(=O)(=O)O. The description is as §1.
Data set [4] deals with C[C@@H](O)[C@H]1C(=O)N2C(C(=O)O)=C(SCCNC=N)C[C@H]12. Described as §1.
The test system of data set [5] is CC1(C)S[C@@H]2[C@H](NC(=O)[C@H](N)c3ccccc3)C(=O)N2[C@H]1C(=O)O. The data set can be described thus: (§2) Activity at Pseudomonas aeruginosa COL-1 metallo-beta lactamase VIM-2 by spectrometry.
Data set [6] concerns CC(C)(O/N=C(\C(=O)N[C@@H]1C(=O)N2C(C(=O)[O-])=C(C[n+]3ccccc3)CS[C@H]12)c1csc(N)n1)C(=O)O. Described as §2.
The subject of data set [7] is CO[C@@]1(NC(=O)Cc2cccs2)C(=O)N2C(C(=O)O)=C(COC(N)=O)CS[C@@H]21. Described as §2.
Data set [8] has as its system CO/N=C(\C(=O)N[C@@H]1C(=O)N2C(C(=O)[O-])=C(C[N+]3(C)CCCC3)CS[C@H]12)c1csc(N)n1. The data set is described as §2.
The subject of data set [9] is C[C@@H](O)[C@H]1C(=O)N2C(C(=O)O)=C(SCCNC=N)C[C@H]12. The data set is described as §2.
In data set [10] the test system is CO/N=C(\C(=O)N[C@@H]1C(=O)N2C(C(=O)[O-])=C(C[N+]3(C)CCCC3)CS[C@H]12)c1csc(N)n1. The data set can be described thus: (§3) Activity at Pseudomonas aeruginosa M5109 metallo-beta-lactamase VIM-11 by spectrometry.
The subject of data set [11] is C[C@@H](O)[C@H]1C(=O)N2C(C(=O)O)=C(SCCNC=N)C[C@H]12. The description is as §3.
For data set [12], the system named is CO/N=C(\C(=O)N[C@@H]1C(=O)N2C(C(=O)[O-])=C(C[N+]3(C)CCCC3)CS[C@H]12)c1csc(N)n1. The data set is described as follows: (§4) Ratio of Kcat to Km for Pseudomonas aeruginosa M5109 metallo-beta-lactamase VIM-11.
The test system of data set [13] is C[C@H]1[C@H](NC(=O)/C(=N\OC(C)(C)C(=O)O)c2csc(N)n2)C(=O)N1S(=O)(=O)O. The data set is described as §4.
For data set [14], the system named is C[C@@H](O)[C@H]1C(=O)N2C(C(=O)O)=C(SCCNC=N)C[C@H]12. The data set is described as §4.

As usually defined, the kcat is the maximal rate divided by the concentration of active sites. In general, Km refers to the concentration of substrate that gives half-maximal velocity. For the substance “Metallo-beta-lactamase VIM-2 (Pseudomonas aeruginosa) (from UniProt D1MEN9)”, the kcat/Km was 2.8 ×10⁶ /M/s in [1], 2.8 ×10⁶ /M/s in data set [2], “Not Active” in data set [3] and 3.1 ×10⁶ /M/s in data set [4]. The catalytic constant (kcat) was 302 s⁻¹ in data set [5], 2.8 s⁻¹ in data set [6], > 33 s⁻¹ in data set [8] and 30.2 s⁻¹ in data set [9]. In addition, the figures for the Km in [7], in data set [8] and in data set [9] were 9.9 µM, > 1200 µM and 9.9 µM, respectively.

As for “Metallo-beta-lactamase VIM-11 (Pseudomonas aeruginosa) (from UniProt C7DTR7)”, the Michaelis-Menten constant (Km) is > 1200 µM in data set [10] and 9.4 µM in data set [11]. In addition, the catalytic constant (kcat) in data set [10] is > 100 s⁻¹; in data set [11] it was 20 s⁻¹. Also, the kcat/Km in data set [12] is 8.3 ×10⁶ /M/s; in [13], “Not Active”; in data set [14] it was 2.1 ×10⁶ /M/s.
